This note sets out measurements from paper PMC11124394, “Novel Combretastatin A-4 Analogs—Design, Synthesis, and Antiproliferative and Anti-Tubulin Activity” (Molecules, 2024).

In the assay the test system is tubulin. Briefly: In vitro tubulin polymerization (turbidometry at 340 nm, BK004P kit). The format is biochemical, porcine. The settings on record: 37 °C, 60 min, absorbance 340 nm; CA-4 5 μM, colchicine 5 μM, compounds 8 and 20 at 20 or 100 μM. The method, then:
The kinetics of microtubule assembly was assessed by measuring absorbance at 340 nm over time.
The assembly of purified bovine tubulin was monitored using a BK004P kit, purchased from Cytoskeleton Inc. (Denver, CO, USA). The assay was performed according to the manufacturer’s instructions using the standard assay conditions. […] Light was scattered proportionally to the concentration of the polymerized microtubules in the assay. Then, the tubulin assembly was monitored by turbidometry at 340 nm in a MultiscanGo spectrophotometer (ThermoFisher Scientific, Carlsbad, CA, USA) for 60 min. The time dependence of the tubulin polymerization was presented in the form of graphs prepared in the GraphPad Prism 8.4.3.686 (Boston, MA, USA) software.

Consider `COc1cc2c(c(OC)c1OC)-c1ccc(OC)c(=O)cc1[C@@H](NC(C)=O)CC2` [colchicine, reference compound], for which the “Effect on in vitro tubulin polymerization” value is listed as “inhibited tubulin polymerization”.
